Measurements as given in patent US9573887B2, “Naphthalene derivative” (Daito Chemix Corporation, priority 2010, dated 2017).

Sequences of proteins named here, by UniProt entry; tags and fusion partners are left off.
UniProt Q01853, whole entry: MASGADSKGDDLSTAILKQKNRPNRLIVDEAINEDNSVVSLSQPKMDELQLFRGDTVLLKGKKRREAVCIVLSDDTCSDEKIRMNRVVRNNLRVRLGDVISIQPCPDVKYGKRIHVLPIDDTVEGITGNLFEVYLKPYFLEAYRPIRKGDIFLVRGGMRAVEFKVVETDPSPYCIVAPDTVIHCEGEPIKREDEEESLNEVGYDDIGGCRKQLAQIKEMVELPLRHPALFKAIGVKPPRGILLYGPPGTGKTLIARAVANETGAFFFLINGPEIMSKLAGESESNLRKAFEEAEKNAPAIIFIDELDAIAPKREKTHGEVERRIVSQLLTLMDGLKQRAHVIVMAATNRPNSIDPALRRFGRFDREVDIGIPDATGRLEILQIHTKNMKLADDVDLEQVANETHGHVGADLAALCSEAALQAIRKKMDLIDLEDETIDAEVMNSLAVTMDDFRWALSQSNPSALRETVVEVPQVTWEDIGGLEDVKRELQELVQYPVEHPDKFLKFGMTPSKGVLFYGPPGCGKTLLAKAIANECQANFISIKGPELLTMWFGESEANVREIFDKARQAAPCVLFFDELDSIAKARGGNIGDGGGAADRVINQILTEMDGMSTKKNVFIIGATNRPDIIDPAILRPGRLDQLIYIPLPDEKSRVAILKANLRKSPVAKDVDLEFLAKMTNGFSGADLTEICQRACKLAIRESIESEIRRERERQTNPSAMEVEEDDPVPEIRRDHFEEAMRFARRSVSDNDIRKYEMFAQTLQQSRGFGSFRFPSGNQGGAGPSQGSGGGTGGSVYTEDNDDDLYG

Biological target: Mouse VCP (Mus musculus, UniProt Q01853)
Experiment: ATPase activity of purified His-tagged VCP, [γ-32P]ATP, liberated phosphate by liquid scintillation
Format: biochemical
Settings: compounds of Examples; ATPase inhibitory activity; 500 ng VCP, 100 μM ATP, 37° C., 10 minutes; tested form: Na salt

COc1ncc(N=Nc2cc(S(=O)(=O)O)c3ccccc3c2N)cc1-c1ccccc1
IC50: 469 nM
